{"source": "patent US20070054841A1", "about": "“Method of treatment of systemic injury secondary to burns” (The University of Queensland, priority 2003, published 2007)", "key": {"[1]": {"tested_on": "rats with full thickness skin burn", "assay": "Rat thermal skin burn (30%): bronchoalveolar lavage cell number and lung myeloperoxidase", "format": "in vivo, Female Wistar rats", "conditions": "10 mg/kg SC 30 minutes before burn; 4 hours after burning; versus burn-only rats", "protocol": "A separate series of experiments was performed in the same way to determine myeloperoxidase (MPO) levels in the lung. In this experiment the groups were as follows: Immediately after the 4 hr monitoring period following the burn the lungs were flushed with 10 ml of saline via the pulmonary artery. Bronchoalveolar lavage (BAL) fluid was collected by an irrigation of 1 ml of saline at 37° C. into the lung once through the trachea and the total number of cells present in the lavage fluid was determined. Approximately 50% of the left lung was weighed, then homogenized in 1 ml solution of 0.05% sodium azide in 0.1M PBS (pH 6.4), and then sonicated and centrifuged. The MPO levels in the supernatants of lungs were determined using a tissue MPO assay, and the results were calculated as absorbance/tissue weight (g). Samples of affected skin, lung, liver and kidney were collected for histopathology."}, "C5a receptor": {"molecular_target": "T1, C5a receptor (Homo sapiens, UniProt P21730)", "T1 construct": "as monitored in sensitive assays for chemotaxis and polarisation of neutrophils; host or cells: neutrophils", "T1 sequence (P21730 1-350)": "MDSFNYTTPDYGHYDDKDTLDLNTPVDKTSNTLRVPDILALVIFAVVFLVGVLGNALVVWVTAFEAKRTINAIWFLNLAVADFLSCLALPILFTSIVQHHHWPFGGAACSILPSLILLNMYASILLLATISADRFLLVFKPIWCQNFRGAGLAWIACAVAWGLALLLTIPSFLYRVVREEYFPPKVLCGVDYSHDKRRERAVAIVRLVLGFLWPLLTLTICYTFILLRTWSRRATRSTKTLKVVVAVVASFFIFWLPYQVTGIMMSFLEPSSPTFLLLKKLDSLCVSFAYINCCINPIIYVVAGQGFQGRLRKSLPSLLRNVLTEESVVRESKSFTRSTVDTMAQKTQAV", "conditions": "chemotaxis and polarisation of neutrophils; Finch et al 1999; cited from earlier work"}}, "data": [{"smiles": "CC(=O)N[C@@H](Cc1ccccc1)C(=O)N[C@H]1CCCNC(=O)[C@H](CCCNC(=N)N)NC(=O)[C@H](Cc2c[nH]c3ccccc23)NC(=O)[C@@H](CC2CCCCC2)NC(=O)[C@@H]2CCCN2C1=O", "note": "[PMX53, AcPhe[Orn-Pro-D-Cyclohexylalanine-Trp-Arg]]", "values": [{"measurement": "increase in lung myeloperoxidase (MPO) levels", "setting": "[1]", "result": "significantly inhibited"}, {"measurement": "agonist activity", "setting": "C5a receptor", "result": "devoid of detectable agonist activity"}]}]}
